Earlier results in article PMC12557437, “Research towards selective inhibition of the CLK3 kinase” (Beilstein Journal of Organic Chemistry, 2025).

Protein sequences, listed by entry. Tags and fused reporters are not part of them. Lines headed by an entry give the natural chain unless they say otherwise; changes in a name come on top.
UniProt P22518: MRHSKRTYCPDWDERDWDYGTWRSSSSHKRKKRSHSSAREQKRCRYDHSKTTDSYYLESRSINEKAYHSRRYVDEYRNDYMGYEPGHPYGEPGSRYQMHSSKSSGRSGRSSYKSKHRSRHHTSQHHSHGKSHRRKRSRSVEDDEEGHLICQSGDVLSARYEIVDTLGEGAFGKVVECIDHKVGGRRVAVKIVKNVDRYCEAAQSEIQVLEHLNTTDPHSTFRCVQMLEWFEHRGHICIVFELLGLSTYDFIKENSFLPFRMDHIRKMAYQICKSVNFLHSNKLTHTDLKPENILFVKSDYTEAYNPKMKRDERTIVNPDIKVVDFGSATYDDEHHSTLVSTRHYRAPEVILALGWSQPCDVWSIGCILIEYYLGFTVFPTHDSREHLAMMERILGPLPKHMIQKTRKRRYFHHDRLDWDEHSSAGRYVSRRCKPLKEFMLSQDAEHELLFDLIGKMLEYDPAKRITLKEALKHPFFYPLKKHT
UniProt O35491, whole entry: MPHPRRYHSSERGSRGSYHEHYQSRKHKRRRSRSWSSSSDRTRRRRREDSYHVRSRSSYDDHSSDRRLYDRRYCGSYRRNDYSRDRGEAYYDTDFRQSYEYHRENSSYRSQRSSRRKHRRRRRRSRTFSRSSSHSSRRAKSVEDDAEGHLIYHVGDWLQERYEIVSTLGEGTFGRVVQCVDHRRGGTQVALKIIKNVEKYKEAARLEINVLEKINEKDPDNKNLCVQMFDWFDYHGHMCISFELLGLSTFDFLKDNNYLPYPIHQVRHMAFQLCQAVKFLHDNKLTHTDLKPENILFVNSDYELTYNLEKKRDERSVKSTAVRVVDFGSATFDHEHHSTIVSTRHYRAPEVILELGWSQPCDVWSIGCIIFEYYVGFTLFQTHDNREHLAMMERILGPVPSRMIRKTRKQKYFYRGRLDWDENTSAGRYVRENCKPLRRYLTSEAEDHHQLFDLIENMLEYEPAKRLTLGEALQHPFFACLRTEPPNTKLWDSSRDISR

Tests used:
Mm_CLK1 = Mm_CLK1 (Mus musculus, UniProt P22518); design: method as in PMID 33422908, PMID 36234686; conditions: data taken from ref 23-24; cited from earlier work
DYRK kinases = conditions: cited from earlier work
CLK1 = conditions: human protein kinase; ref 17 (SM08502), 19 (T3), 20-21 (CX-4945), 24 (DB18); cited from earlier work
CLK3 = conditions: human protein kinase; ref 17 (SM08502), 19 (T3), 20-21 (CX-4945), 24 (DB18); cited from earlier work
Mm_CLK3 = biological target: T1, Mm_CLK3 (Mus musculus, UniProt O35492); design: method as in PMID 33422908, PMID 36234686; conditions: data taken from ref 23-24; cited from earlier work
T1 sequence (O35492 1-490): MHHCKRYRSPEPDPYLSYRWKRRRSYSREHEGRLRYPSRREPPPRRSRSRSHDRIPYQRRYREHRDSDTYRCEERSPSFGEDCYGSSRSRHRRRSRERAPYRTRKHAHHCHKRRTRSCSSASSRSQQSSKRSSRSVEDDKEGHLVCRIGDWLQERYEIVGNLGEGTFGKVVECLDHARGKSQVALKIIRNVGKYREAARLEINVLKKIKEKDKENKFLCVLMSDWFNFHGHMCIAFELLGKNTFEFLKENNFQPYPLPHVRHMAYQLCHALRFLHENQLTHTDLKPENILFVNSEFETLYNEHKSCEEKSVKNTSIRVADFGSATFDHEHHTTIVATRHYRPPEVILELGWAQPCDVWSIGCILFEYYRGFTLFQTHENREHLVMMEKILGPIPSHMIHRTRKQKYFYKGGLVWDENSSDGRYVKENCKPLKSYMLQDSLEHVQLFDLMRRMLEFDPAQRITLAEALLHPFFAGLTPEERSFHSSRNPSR

Mm_CLK2 = Mm_CLK2 (Mus musculus, UniProt O35491); design: method as in PMID 33422908, PMID 36234686; conditions: data taken from ref 23-24; cited from earlier work
CLK4 = conditions: human protein kinase; ref 17 (SM08502), 20-21 (CX-4945), 24 (DB18); cited from earlier work
DYRK1A = conditions: human protein kinase; ref 17 (SM08502), 19 (T3), 20-21 (CX-4945), 24 (DB18); cited from earlier work
CLK2 = conditions: human protein kinase; ref 17 (SM08502), 19 (T3), 20-21 (CX-4945), 24 (DB18); cited from earlier work

For `Cc1ccc(-n2cc(COc3cccc4cnc(Nc5cccc(Cl)c5)nc34)nn2)c([N+](=O)[O-])c1` [DB18], the IC50 (Mm_CLK1) is listed as 11 nM, the “inhibition of DYRK kinases” value (DYRK kinases) is listed as “inactive” and the IC50 (CLK1) is listed as 0.011 nM. The IC50 (CLK3) was 1.28 nM, the IC50 (Mm_CLK3) was 1280 nM and the IC50 (Mm_CLK2) was 27 nM. For the same compound, the IC50 (CLK4) was 0.02 nM, the IC50 (DYRK1A) was > 100 nM and the IC50 (CLK2) was 0.027 nM.
